Our source for the Ki values is publication PMC6292454 (Biochemical Journal, 2018).

The test concerns the target NA2009wt (recombinant neuraminidase) (Influenza A virus, UniProt C3W6G3). Put plainly: biochemical. The test is classed as binding, A/California/07/2009 (H1N1) influenza virus.

SMILES strings stand for the structures.

Turning to `CCC(CC)O[C@@H]1C=C(C(=O)O)C[C@H](N)[C@H]1NC(C)=O` [compound 4, oseltamivir carboxylate, reference compound], the Ki amounted to 31 ± 6 nM.
